Tested on: human mammary carcinoma MX-1 xenografts
Conditions: FIG. 5; Cyclophosphamide 120 mg/kg oral Q2D×8, ip Q2D×4, with or without Compound D 10 mg/kg iv Q4D×3, Q6D×2; n=8

**Q.** O=P1(N(CCCl)CCCl)NCCCO1 (stereo not shown) [Cyclophosphamide] was tested. Which “complete remission (CR)” value did it give?
**A.** 8/8
